# Reference: US5385842A, “Anthraquinones as inhibitors of sulfide production from sulfate-reducing bacteria” (E. I. Du Pont de Nemours and Company, priority 1993, dated 1995)
# System: Desulfovibrio desulfuricans G100A
# Conditions: <10 ppm in 2.7% EtOH (not totally soluble at 30 ppm in 8% EtOH before 3x dilution)
compound,measurement,value
O=C1c2ccccc2C(=O)c2c1cccc2[As](=O)(O)O,% Inhib. (inhibition of sulfide production),18.2%
